Our source for the IC50 values is ChEMBL document CHEMBL1131002, “2beta-Substituted analogues of 4'-iodococaine: synthesis and dopamine transporter binding potencies” (J Med Chem, 1998).

By UniProt entry, the sequences of proteins in these tests, tags left out.
UniProt Q9WTR4, whole entry: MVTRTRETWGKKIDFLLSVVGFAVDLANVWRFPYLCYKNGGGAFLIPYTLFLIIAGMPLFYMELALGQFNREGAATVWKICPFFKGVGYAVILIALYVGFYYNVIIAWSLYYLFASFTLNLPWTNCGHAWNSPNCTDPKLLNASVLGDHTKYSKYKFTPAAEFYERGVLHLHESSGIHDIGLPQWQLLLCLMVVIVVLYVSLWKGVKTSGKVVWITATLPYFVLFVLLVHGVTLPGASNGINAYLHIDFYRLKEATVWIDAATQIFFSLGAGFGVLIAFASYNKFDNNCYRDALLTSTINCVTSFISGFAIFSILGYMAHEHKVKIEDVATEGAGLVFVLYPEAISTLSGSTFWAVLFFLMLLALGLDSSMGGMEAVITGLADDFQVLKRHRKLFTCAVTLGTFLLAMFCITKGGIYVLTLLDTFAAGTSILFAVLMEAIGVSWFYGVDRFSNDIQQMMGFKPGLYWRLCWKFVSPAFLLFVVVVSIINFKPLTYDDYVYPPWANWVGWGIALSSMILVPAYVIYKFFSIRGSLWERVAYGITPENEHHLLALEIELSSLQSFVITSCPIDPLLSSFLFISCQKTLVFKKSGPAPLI
UniProt P31652, whole entry: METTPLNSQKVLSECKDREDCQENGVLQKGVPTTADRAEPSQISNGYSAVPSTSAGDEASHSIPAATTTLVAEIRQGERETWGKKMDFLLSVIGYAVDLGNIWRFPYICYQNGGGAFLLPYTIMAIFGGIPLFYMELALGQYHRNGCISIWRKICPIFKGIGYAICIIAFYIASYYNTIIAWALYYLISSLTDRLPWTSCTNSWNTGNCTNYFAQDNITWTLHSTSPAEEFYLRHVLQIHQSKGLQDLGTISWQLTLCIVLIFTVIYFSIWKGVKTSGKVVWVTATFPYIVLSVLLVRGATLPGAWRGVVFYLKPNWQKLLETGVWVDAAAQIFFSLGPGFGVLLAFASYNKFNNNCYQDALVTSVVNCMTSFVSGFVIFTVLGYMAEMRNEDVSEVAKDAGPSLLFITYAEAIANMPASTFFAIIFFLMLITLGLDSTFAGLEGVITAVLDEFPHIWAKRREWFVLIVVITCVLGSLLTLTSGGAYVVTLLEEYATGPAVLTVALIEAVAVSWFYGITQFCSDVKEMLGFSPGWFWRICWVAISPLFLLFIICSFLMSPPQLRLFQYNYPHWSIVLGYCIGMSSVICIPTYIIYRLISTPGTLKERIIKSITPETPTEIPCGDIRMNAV

The target of experiment [1] is Norepinephrine transporter (Rattus norvegicus, UniProt Q9WTR4). Briefly: Inhibition of norepinephrine Transporter Affinity against rat whole brain using [3H]nisoxetine radioligand. The method, boiled down: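 Whole brain minus cerebellum membranes in 50 mM Tris-HCl pH 7.4 with 300 mM NaCl and 5 mM KCl. Displacement of 0.7 nM [3H]nisoxetine. Incubated 40 min at 25 °C, then filtered on BSA-soaked GF/B. 1 μM desipramine defined nonspecific binding.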

For experiment [2], the target named is Sodium-dependent serotonin transporter (Rattus norvegicus, UniProt P31652). Briefly: Inhibition of serotonin Transporter Affinity against rat whole brain using [3H]paroxetine as radioligand.

One may read the IC50 as the concentration needed to halve the response being measured. Lower therefore signals inhibition by little substance. `COC(=O)[C@H]1[C@@H](OC(=O)c2ccccc2)C[C@@H]2CC[C@H]1N2C` [COCAINE]: the half-maximal inhibitory concentration (IC50) in experiment [1] was found to be 2.5 µM; in experiment [2] it was 0.615 µM.
